Results: PubChem BioAssay AID504357 (The Scripps Research Institute Molecular Screening Center, 2011)
Only a part is listed here, and it is no random draw. The source made the active and inactive calls. Rule as the data show it: active = inhibition above about 22% (passing the limit was not always enough); inactive = the rest.

Amino acid sequences for entries named in this document (tags omitted).
UniProt P35372, whole entry, looked up: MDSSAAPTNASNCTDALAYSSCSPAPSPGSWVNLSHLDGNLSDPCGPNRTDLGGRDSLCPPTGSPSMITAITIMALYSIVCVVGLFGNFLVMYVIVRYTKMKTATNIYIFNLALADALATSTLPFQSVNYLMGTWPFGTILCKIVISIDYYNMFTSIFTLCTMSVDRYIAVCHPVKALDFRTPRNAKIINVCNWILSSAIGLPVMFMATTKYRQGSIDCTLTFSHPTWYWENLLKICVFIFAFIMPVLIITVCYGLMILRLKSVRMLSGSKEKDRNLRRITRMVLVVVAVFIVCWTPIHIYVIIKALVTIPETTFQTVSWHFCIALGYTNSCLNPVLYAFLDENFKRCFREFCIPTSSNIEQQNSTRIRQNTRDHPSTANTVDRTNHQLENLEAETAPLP
UniProt P41143, whole entry, looked up: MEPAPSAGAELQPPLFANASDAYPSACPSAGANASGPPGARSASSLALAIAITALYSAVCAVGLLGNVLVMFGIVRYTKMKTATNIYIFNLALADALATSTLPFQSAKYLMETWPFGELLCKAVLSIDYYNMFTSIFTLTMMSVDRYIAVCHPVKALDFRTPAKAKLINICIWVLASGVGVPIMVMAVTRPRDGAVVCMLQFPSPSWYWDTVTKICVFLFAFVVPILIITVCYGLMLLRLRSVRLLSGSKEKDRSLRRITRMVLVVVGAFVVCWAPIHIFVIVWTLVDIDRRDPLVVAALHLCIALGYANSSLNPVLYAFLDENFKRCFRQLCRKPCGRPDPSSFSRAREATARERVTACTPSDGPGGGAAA

These molecules were tested against Mu-type opioid receptor (Homo sapiens) + Delta-type opioid receptor (Homo sapiens) (UniProt P35372+P41143) (assay: OPRM1-OPRD1 heterodimer inverse agonism – cell-based, luminescence, primary screen (AID 504357;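 also: 0% = cells with DMSO and 100% = wells without cells with DMSO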)). Conditions: cell-based MOR-DOR heterodimer luminescence, at 9.3 µM, stronger effect = higher value.

Row | SMILES | inhibition
1 | COc1ccc(-c2ccc3c(c2)[C@@H]2C[C@H](N(C)C(=O)Nc4ccccc4)[C@H]([C@H](C)O)C(=O)N2CC3)cc1 | inactive: 10.8%
2 | Cc1nc2ccccc2n1CC(=O)NC(C)C1CC2CCC1C2 (centres undefined) | inactive: -6.15%
3 | CCc1ccc(C(C)NC(=O)Cn2cnc3c(=O)n(C)c(=O)n(C)c32)cc1 (centres undefined) | inactive: 14.8%
4 | Cc1ccc(-c2nnc(N3CCN(C(=O)Cn4c(=O)n(C)c5ccccc54)CC3)c3ccccc23)cc1 | inactive: 1.62%
5 | COc1ccc2nc(NC(=O)Cn3cnc4c(=O)n(C)c(=O)n(C)c43)sc2c1 | inactive: -0.87%
6 | CCC(=O)Nc1ccc(NC(=S)NC(=O)/C=C/c2ccccc2)cc1 | inactive: 10.3%
7 | FC(F)(F)c1ccc2c(c1)nnn2C1CCN(Cc2nnnn2Cc2ccccc2)CC1 | inactive: -13.1%
8 | CCC(CC)NC(=O)Cn1c(C(C)NC(C)=O)nc2ccccc21 (centres undefined) | inactive: -1.95%
9 | c1ccc(CCn2nnnc2CN2CCC(n3nnc4ccccc43)CC2)cc1 | inactive: 7.49%
10 | C[C@H](NC(=O)N1CCn2c1nc1ccccc12)C(=O)NC1CCCCC1 | inactive: 8.62%
11 | COCC(=O)N(C)[C@H]1C[C@H]2c3cc(N4CCN(C)CC4)ccc3CCN2C(=O)[C@H]1[C@H](C)O | inactive: 4.02%
12 | Nc1ccc([As](=O)(O)c2ccc(N)cc2)cc1 | inactive: 4.11%
13 | CCSc1nnc(NC(=O)Cn2cnc3c2c(=O)n(C)c(=O)n3C)s1 | inactive: 14.2%
14 | COc1ccc(CNc2nc3ccccc3n2CCN2CCCCC2)c(OC)c1 | inactive: 13%
15 | c1ccc(CN2CCC3(CC2)Nc2ccccc2S3)cc1 | inactive: -21.6%
16 | COc1ccccc1CNc1nc2ccccc2n1CCN1CCCCC1 | inactive: -2.51%
17 | COc1ccc(N2CCn3c2nc2c3c(=O)n(CCCc3ccccc3)c(=O)n2C)c(OC)c1 | inactive: -9.47%
18 | Cc1ccc(CNC(=O)CCNC(=O)N2CCn3c2nc2ccccc23)cc1 | inactive: 12.4%
19 | Cn1c(=O)[nH]c(=O)c2c1nc(CN1CCN(c3ccccc3F)CC1)n2CC(N)=O | inactive: 9.27%
20 | Cc1nc2cc(C(F)(F)F)ccc2n1C1CCN(Cc2nnnn2Cc2ccc3c(c2)OCO3)CC1 | inactive: 7.42%
21 | CC1CN(Cc2nc3c(c(=O)[nH]c(=O)n3C)n2CC(N)=O)CC(C)O1 (centres undefined) | inactive: 4.65%
22 | C=CCc1cccc(CNc2nc3ccccc3n2CCN2CCOCC2)c1O | inactive: 14.1%
23 | Cc1cc(C)c(CN2CCN(C(=O)Cn3cnc4c(OCc5ccccc5)ncnc43)CC2)c(C)c1 | inactive: -28.8%

Row | SMILES | inhibition
24 | COc1ccc(Cc2nc3ccccc3n2CC(=O)N/N=C/c2ccccc2)cc1OC | inactive: 1.42%
25 | O=C(c1ccco1)N1CCn2c1nc1ccccc12 | inactive: 20.9%
26 | O=C(Nc1cc([As](=O)(O)O)ccc1O)c1ccccc1 | inactive: 7.75%
27 | Cn1c(=O)n(CC(=O)Nc2ccccc2)c2ccccc21 | inactive: 8.55%
28 | Cc1ccc2c(c1)[C@@H]1CN(C)CC[C@@H]1N2S(=O)(=O)c1ccc(F)cc1 | inactive: 4.88%
29 | Cn1c(=O)[nH]c(=O)c2c1nc(SCc1ccccc1Cl)n2CC(N)=O | inactive: 15.4%
30 | COc1ccc(CNC(=O)Cn2cnc3c(=O)n(C)c(=O)n(C)c32)cc1 | inactive: 8.32%
31 | COc1ccccc1NS(=O)(=O)c1cc(NC(=O)Cn2cnc3c2c(=O)n(C)c(=O)n3C)ccc1C | inactive: -3.46%
32 | Cn1c(=O)c2ncn(CC(=O)NC3CCCCCC3)c2n(C)c1=O | inactive: 9.36%
33 | CC(C)[C@H](NC(=O)N1CCn2c1nc1ccccc12)C(=O)NCc1ccc2c(c1)OCO2 | inactive: 11.2%
34 | Cn1c(=O)n(Cc2ccc(Cl)cc2)c(=O)c2c1nc1n2CCN1Cc1ccco1 | inactive: -5.47%
35 | O=C(Cn1cnc2ccccc21)NCCCN1CCOCC1 | inactive: 7.06%
36 | CC(C)[C@H](NC(=O)N1CCn2c1nc1ccccc12)C(=O)N[C@H](C(=O)O)c1ccccc1 | inactive: 10.8%
37 | CSc1nc(N)nc2c1ncn2CC(=O)N[C@H](CO)Cc1c[nH]c2ccccc12 | inactive: 13.2%
38 | Cc1ccc2c(c1)C1CN(C)CCC1N2C(=O)c1cccnc1Cl (centres undefined) | inactive: 2.35%
39 | O=[N+]([O-])c1ccccc1NC1CCN(Cc2ccccc2)CC1 | inactive: 2.81%
40 | O=P1(N(CCCl)CCCl)OCCCS1 (centres undefined) | inactive: 8.6%
41 | Cc1ccc2c(c1)C1CN(C)CCC1N2C(=O)Nc1ccc(Cl)cc1 (centres undefined) | inactive: -20.1%
42 | CCN(CC)CCn1c(=N)n(CC(O)c2ccco2)c2ccccc21 (centres undefined) | inactive: 8.86%
43 | CC(C)Oc1cccnc1N(C)C1CCN(Cc2ccccc2)CC1 | inactive: 4.69%
44 | COc1ccc(Cc2nnc(NC(=O)Cn3cnc4c3c(=O)n(C)c(=O)n4C)s2)cc1 | inactive: 8.5%
45 | COCCCNC(=O)Cn1cnc2c(OCc3ccccc3)ncnc21 | inactive: 13.5%
46 | CCOC(=O)Nc1ccc2c(c1)nc1n2CCN(CCOC)C1 | inactive: 9.07%

Row | SMILES | inhibition
47 | Cc1ccc2c(c1)C1CN(C)CCC1N2CC(=O)N(C)c1ccccc1 (centres undefined) | inactive: 4.19%
48 | N#CCC(=O)N/N=C\c1ccccc1OC/C=C/c1ccccc1 | inactive: -6.96%
49 | O=C(CCCN1CCC2(CC1)C(=O)NCN2c1ccccc1)c1ccc(F)cc1 | inactive: -12.6%
50 | Cn1c(=O)c2c(nc(CN3CCN(c4ccc(F)cc4)CC3)n2CCN2CCOCC2)n(C)c1=O | inactive: 9.36%
51 | COc1cc(NC(=O)Cn2c(-c3cncs3)nc3ccccc32)cc(OC)c1OC | inactive: 7.58%
52 | Cc1ccc(-c2csc(N3CCN(c4cc5c(cc4Cl)nc(C)n5CCN4CCCCC4)CC3)n2)cc1 | inactive: -4.86%
53 | Cc1cc(NC(=O)CSc2nc3ccccc3n2CC(=O)N2CCCCC2)no1 | inactive: 2.06%
54 | COC(=O)C[C@H](NC(=O)Cn1cnc2c(SC)nc(N)nc21)C(=O)OC | inactive: 12.9%
55 | Cn1c(=O)c2c(nc(NCCc3ccccc3)n2CC(=O)NCCc2ccccc2)n(C)c1=O | inactive: -0.8%
56 | O=C(O)CNc1ccc([As](=O)(O)O)cc1 | inactive: 11.8%
57 | Cc1cccc(NC(=O)Cn2c(/C=C/c3ccccc3)nc3ccccc32)c1 | inactive: -1.95%
58 | O=C(c1ccccc1Br)N1CCn2c1nc1ccccc12 | inactive: 11.9%
59 | CCc1nc2ccccc2n1CC(=O)NC1CCS(=O)(=O)C1 (centres undefined) | inactive: 10.3%
60 | COc1cccc(NC(=O)Cn2c(-c3cncs3)nc3ccccc32)c1 | inactive: 8.9%
61 | COc1cccc(CNC(=O)CCNC(=O)N2CCn3c2nc2ccccc23)c1 | inactive: 11.3%
62 | O=C1CCC(=O)N1c1ccc(NC2CCN(Cc3ccccc3)CC2)c([N+](=O)[O-])c1 | inactive: 14.5%
63 | COC(=O)c1ccc(N2C(=O)CC(N3CCC(n4c(=O)[nH]c5ccccc54)CC3)C2=O)cc1 (centres undefined) | inactive: 4.21%
64 | CN(C)C1(c2nnnn2-c2ccc(Cl)cc2)CCCCC1 | inactive: -8.2%
65 | O=C(Cn1cnc2ccccc21)N1CCN(S(=O)(=O)c2ccccc2)CC1 | inactive: 9.28%
66 | CCOC(=O)N1CCN(c2c(NC3CCN(Cc4ccccc4)CC3)c(=O)c2=O)CC1 | inactive: 0.41%
67 | CC(C)Sc1nc2ccccc2n1CC(N)=O | inactive: 15.1%
68 | Cc1noc(C)c1S(=O)(=O)N(CC(=O)N1CCn2c1nc1ccccc12)c1ccc(C(C)C)cc1 | inactive: 0.47%
69 | O=[N+]([O-])c1ccc(NC2CCN(Cc3ccccc3)CC2)c2ccncc12 | inactive: -16.4%

Row | SMILES | inhibition
70 | Cc1nn(CC(=O)Nc2ccc3c(c2)nc2n3CCN(C3CCCCC3)C2)c(=O)c2ccccc12 | inactive: 5.59%
71 | COc1ccc(Cc2nc3ccccc3n2CC(=O)N/N=C/c2ccc(O)cc2)cc1OC | inactive: 5.17%
72 | COC(=O)C1(C)COP(=O)(Nc2ccccc2)OC1 (centres undefined) | inactive: 13.6%
73 | O=[N+]([O-])c1cccc(NC2=NCC(CBr)S2)c1 (centres undefined) | inactive: 18.9%
74 | CSc1nc(N)nc2c1ncn2CC(=O)N1CCN(c2ccccn2)CC1 | inactive: 8.97%
75 | CN1CCN(c2nc3c(c(=O)n(C)c(=O)n3C)n2CC(N)=O)CC1 | inactive: -10.3%
76 | O=S(=O)(Cc1ccccc1)N1CCn2c(nc3ccccc32)C1 | inactive: 7.62%
77 | CCN(CC)S(=O)(=O)c1ccc(NC2CCN(Cc3ccccc3)CC2)nc1 | inactive: -7.58%
78 | CC1CCCN(Cc2nc3c(c(=O)n(C)c(=O)n3C)n2CC(N)=O)C1 (centres undefined) | inactive: 20.5%
79 | CCCn1c(=O)[nH]c(=O)c2c1nc(-c1ccc(OC(F)F)cc1)n2CCN1CCOCC1 | inactive: 7%
80 | Cn1c(=O)c2ncn(CC(=O)Nc3nc(-c4ccc(Cl)cc4)cs3)c2n(C)c1=O | inactive: 3.19%
81 | O=[N+]([O-])c1ncn(CCn2ncnc2[N+](=O)[O-])n1 | inactive: -5.7%
82 | CC(C)C[C@H](NC(=O)N1CCn2c1nc1ccccc12)C(=O)NCC1CCCO1 (some centres undefined) | inactive: 13.9%
83 | CCOc1ccc(NC(=O)CN(C)C(=O)Cn2cnc3c2c(=O)n(C)c(=O)n3C)cc1OCC | inactive: 7.27%
84 | Cc1ccc2c(c1)C1CN(C)CCC1N2C(=O)Nc1cccc(C(F)(F)F)c1 (centres undefined) | inactive: -37.7%
85 | CC(C)(C)NC(=O)Cn1c(SCC(=O)N2CCCCCC2)nc2ccccc21 | inactive: 10.2%
86 | CSCC[C@H](NC(=O)N1CCn2c1nc1ccccc12)C(=O)NCc1ccco1 | inactive: -5.04%
87 | C/C(=N\NC(=O)Cn1cnc2ccccc21)c1cccs1 | inactive: 8.04%
88 | CN(C)C(=O)Cn1c(=O)n(S(=O)(=O)c2ccccc2)c2ccccc21 | inactive: 0.26%
89 | O=[N+]([O-])c1ccc2c(c1)nc1n2CCN(CC2CCCO2)C1 (centres undefined) | inactive: 5.89%
